This is an account of results in patent publication US20260124309A1, “STAT6 DEGRADERS AND USES THEREOF” (Kymera Therapeutics, Inc., priority 2023, published 2026).

Sequences of proteins named here, by UniProt entry; tags and fusion partners are left off.
UniProt P42226, whole entry: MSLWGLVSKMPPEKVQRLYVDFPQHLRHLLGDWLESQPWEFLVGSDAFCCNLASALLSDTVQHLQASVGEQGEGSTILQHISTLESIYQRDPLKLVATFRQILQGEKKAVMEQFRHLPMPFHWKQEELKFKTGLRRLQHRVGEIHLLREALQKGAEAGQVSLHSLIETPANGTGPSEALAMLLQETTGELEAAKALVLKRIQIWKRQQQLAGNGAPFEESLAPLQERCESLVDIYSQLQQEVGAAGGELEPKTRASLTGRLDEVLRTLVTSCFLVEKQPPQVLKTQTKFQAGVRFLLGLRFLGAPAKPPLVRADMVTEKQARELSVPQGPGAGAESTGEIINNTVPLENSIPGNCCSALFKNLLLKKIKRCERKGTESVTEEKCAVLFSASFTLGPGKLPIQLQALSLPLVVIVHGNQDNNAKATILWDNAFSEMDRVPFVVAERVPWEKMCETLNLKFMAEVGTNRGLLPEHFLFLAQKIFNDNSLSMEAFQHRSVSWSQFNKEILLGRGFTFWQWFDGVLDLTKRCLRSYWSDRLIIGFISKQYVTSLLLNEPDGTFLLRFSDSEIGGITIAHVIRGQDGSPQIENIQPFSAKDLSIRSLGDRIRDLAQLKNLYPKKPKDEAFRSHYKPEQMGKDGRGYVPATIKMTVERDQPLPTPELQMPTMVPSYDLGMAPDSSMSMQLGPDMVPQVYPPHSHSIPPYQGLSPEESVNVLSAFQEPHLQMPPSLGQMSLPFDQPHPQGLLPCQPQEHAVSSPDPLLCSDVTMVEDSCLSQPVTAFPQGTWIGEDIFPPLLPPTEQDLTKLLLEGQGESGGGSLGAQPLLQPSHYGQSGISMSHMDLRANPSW

Bounds are passed on as bounds.

This assay concerns the target STAT6 (Homo sapiens, UniProt P42226). As to the kind of experiment: STAT6 MSD degradation in A549 cells. The following applies: for DC50: read-out: STAT6 MSD degradation DC50 (nM) 24 h. The gist of the method:
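A549 cells treated with a 9-point 1:3 series (top up to 10 uM) for 4 to 24 hours at 37° C., then lysed in RIPA. STAT6 quantified by sandwich MSD electrochemiluminescence immunoassay. DC50 and Dmax from four-parameter nonlinear fit, reported as letter-code bins.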

Broadly, the DC50 is the concentration giving 50% degradation. Turning to `COc1cc(N2CCN(CCc3ccc(C4CCC(=O)NC4=O)cc3F)CC2)ccc1-c1cc(C2=CCCN(C(=O)CCn3ccnn3)C2)c(F)c2[nH]c(C(=O)N(C)C)cc12` (stereo not drawn), the “STAT6 MSD degradation Dmax % 24 h” value is given as “A (A (>90%))” and the DC50 was below 1 nM.
In the case of `CN(C)C(=O)c1cc2c(-c3ccc(N4CCN(CCCc5ccc6c(c5)n(C)c(=O)n6C5CCC(=O)NC5=O)CC4)cc3)cc(C3=CCCN(C(=O)CCn4ccnn4)C3)cc2[nH]1` (stereo not drawn), the “STAT6 MSD degradation Dmax % 24 h” value is recorded as “A (A (>90%))” and the DC50 is below 1 nM.
For `COc1cc(N2CCN(c3ccc(-c4cc(C5=CCCN(C(=O)CCn6cccn6)C5)c(F)c5[nH]c(C(=O)N(C)C)cc45)cc3)CC2)c(F)cc1NC1CCC(=O)NC1=O` (stereo not drawn), in that order: “A (A (>90%))” and below 1 nM.
